Laboratory results from PubChem BioAssay (EPA / NIEHS).
The list shows a part of the results, in another mix than the full data. Inconclusive results are not listed. Activity calls are given as the source filed them. Rule for the calls, unless noted: active = hit-call score of the fitted dose curve at least 0.9, where 1 is the maximum; inactive = score below 0.9.

Chains of the proteins cited; added tags and fusions are not shown.
UniProt P10275, whole entry: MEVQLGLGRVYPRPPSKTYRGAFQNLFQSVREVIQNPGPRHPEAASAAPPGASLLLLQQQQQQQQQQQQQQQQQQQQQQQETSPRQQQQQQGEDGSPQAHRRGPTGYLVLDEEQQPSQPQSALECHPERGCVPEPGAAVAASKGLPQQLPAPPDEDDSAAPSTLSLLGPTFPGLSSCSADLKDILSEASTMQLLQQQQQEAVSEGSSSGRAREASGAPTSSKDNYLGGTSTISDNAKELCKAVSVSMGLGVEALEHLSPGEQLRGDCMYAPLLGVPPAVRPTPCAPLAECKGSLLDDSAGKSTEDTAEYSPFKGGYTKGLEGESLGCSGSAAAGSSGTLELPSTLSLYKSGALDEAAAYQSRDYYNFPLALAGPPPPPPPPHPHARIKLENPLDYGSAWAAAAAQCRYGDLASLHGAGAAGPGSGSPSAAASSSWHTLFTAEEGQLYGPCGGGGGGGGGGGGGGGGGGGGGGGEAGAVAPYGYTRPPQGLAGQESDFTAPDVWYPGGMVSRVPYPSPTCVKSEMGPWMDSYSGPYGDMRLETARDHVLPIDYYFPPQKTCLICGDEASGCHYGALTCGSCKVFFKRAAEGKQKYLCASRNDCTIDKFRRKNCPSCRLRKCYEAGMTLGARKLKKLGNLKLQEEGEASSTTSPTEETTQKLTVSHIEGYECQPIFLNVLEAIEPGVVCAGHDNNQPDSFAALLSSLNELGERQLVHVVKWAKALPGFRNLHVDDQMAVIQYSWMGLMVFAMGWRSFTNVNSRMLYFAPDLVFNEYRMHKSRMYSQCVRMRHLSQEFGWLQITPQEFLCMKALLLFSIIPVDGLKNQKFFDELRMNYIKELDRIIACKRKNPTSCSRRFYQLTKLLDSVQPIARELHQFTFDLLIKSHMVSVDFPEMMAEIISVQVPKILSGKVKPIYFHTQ

Key:
[1] = CCTE_Harrill_HTTr_Viability_MCF7: CCTE's 6-hour Cell Viability Assessment for the High-Throughput Transcriptomics (HTTr) Platform, in MCF-7 cells cultured in DMEM + 10% fetal bovine serum, Harrill Lab (AID 2284010)
Method in brief: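 Read-out is propidium iodide gain of signal by high-content imaging, reflecting membrane integrity loss. Measurements are taken 6 h after dosing, eight concentrations per chemical, with DMSO serving as baseline for bidirectional curve fitting.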

[2] = CCTE_Harrill_HTTr_Apoptosis_MCF7: CCTE's 6-hour Apoptosis Assessment for the High-Throughput Transcriptomics (HTTr) Platform, in MCF-7 cells cultured in DMEM + 10% fetal bovine serum, Harrill Lab (AID 2284011)
Method in brief: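 Read-out: CellEvent Caspase 3/7 Green signal by high content imaging, gain-of-signal indicating apoptosis. MCF-7 cells, DMEM + 10% FBS, eight-point dilution series, 6 h exposure. Curves fitted bidirectionally relative to DMSO negative control.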

[3] = molecular target: Ratio of Nucleoli Translocation and Cytoplasm, AR (gene 367) (UniProt P10275); experiment: UPITT_HCI_U2OS_AR_TIF2_Nucleoli_Cytoplasm_Ratio_Antagonist: University of Pittsburgh U2OS Androgen Receptor-Transcriptional Intermediary Factor 2 (AR-TIF2) Antagonism High Content Imaging Assay for Ratio of Nucleoli Translocation and Cytoplasm (AID 2283999; active = hit-call score of the fitted dose curve at least 0.9, where 1 is the maximum;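 note: antagonists lower the DHT-driven ratio of nucleolar to cytoplasmic red signal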)
Text: (§1) UPITT_AR_TIF2_PPIB is a cell-based, high-content imaging assay that uses U2OS, a human osteosarcoma cell line, expressing a human androgen receptor fused to red fluorescent protein and the coactivator TIF2 fused to green fluorescent protein. UPITT_HCI_U2OS_AR_TIF2_Nucleoli_Cytoplasm_Ratio_Antagonist is one of four assay components measured from the UPITT_AR_TIF2_PPIB assay. It is designed to make measurements of the ratio of red fluorescence localized in the nucleolar region of the cell nucleus to red fluorescence localized in the cytoplasm as detected with high-content fluorescent imaging.Data from the assay component UPITT_HCI_U2OS_AR_TIF2_Nucleoli_Cytoplasm_Ratio_Antagonist was analyzed into 1 assay endpoint. This assay endpoint, UPITT_HCI_U2OS_AR_TIF2_Nucleoli_Cytoplasm_Ratio_Antagonist, was analyzed in the positive analysis fitting direction relative to DHT as the baseline of activity. Using a type of binding reporter, measures of receptor for loss-of-signal activity can be used to understand the binding at the pathway-level as it relates to the gene AR.
(§2) Daughter plates containing 2 uL of 10 mM compounds in DMSO were prepared and replicated from the 384-well Library of Pharmacologically Active Compounds (LOPAC) master plates using the Bravo outfitted with a 384-well transfer head. […]

[4] = molecular target: Ratio of Nucleoli Translocation and Cytoplasm, AR (gene 367) (UniProt P10275); experiment: UPITT_HCI_U2OS_AR_TIF2_Nucleoli_Cytoplasm_Ratio_Agonist: University of Pittsburgh U2OS Androgen Receptor-Transcriptional Intermediary Factor 2 (AR-TIF2) Agonism High Content Imaging Assay for Ratio of Nucleoli Translocation and Cytoplasm (AID 2284000; active = hit-call score of the fitted dose curve at least 0.9, where 1 is the maximum;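 note: hits raise the red nucleolar to cytoplasm ratio above vehicle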)
Text: as §1, with “UPITT_HCI_U2OS_AR_TIF2_Nucleoli_Cytoplasm_Ratio_Agonist” for “UPITT_HCI_U2OS_AR_TIF2_Nucleoli_Cytoplasm_Ratio_Antagonist”, “UPITT_HCI_U2OS_AR_TIF2_Nucleoli_Cytoplasm_Ratio_Agonist,” for “UPITT_HCI_U2OS_AR_TIF2_Nucleoli_Cytoplasm_Ratio_Antagonist,”, “DMSO” for “DHT”, “gain-of-signal” for “loss-of-signal”
as §2

[5] = CCTE_Harrill_HTTr_CellCount_MCF7: CCTE's Cell Proliferation Assessment for the High-Throughput Transcriptomics (HTTr) Platform, Harrill Lab (AID 2284012; active = hit-call score of the fitted dose curve at least 0.9, where 1 is the maximum;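 note: cells exposed to compound for six hours; intended direction is loss of nuclei count meaning fewer cells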)
Method in brief: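 Cell count served as viability reporter: loss of Hoechst-stained nuclei, counted by high content imaging, marks decreased growth or survival. Exposure was 6 h in MCF-7 cells across eight concentrations, with DMSO as baseline.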

[6] = molecular target: Nucleoli Translocation, AR (gene 367) (UniProt P10275); experiment: UPITT_HCI_U2OS_AR_TIF2_Nucleoli_Agonist: University of Pittsburgh U2OS Androgen Receptor-Transcriptional Intermediary Factor 2 (AR-TIF2) Agonism High Content Imaging Assay for Nucleoli Translocation (AID 2283998; active = hit-call score of the fitted dose curve at least 0.9, where 1 is the maximum)
Method in brief: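 RFP-AR / GFP-TIF2 cells; cpds diluted in serum-free medium; single-point screen 20 uM final (0.2% DMSO), actives confirmed in triplicate; conc-response 0.195–50 uM final (0.5% DMSO). Readout: nucleolar red fluorescence, positive direction vs DMSO.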

[7] = CCTE_Shafer_MEA_acute_spike_number: CCTE's Neural Acute Assay for Total Number of Spikes, Shafer Lab (AID 2284008)
Method in brief: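 Rat cortical cultures, DIV 13/15, 37 C. 40 min baseline rec, cpd 0.03-40 uM, 40 min post-dose rec. Band-pass 300-5000 Hz, spike threshold 8x rms; % change in spike count per well, DMSO neg ctrl, loss-of-signal fit.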

[8] = CCTE_Shafer_MEA_acute_firing_rate_mean: CCTE's Neural Acute Assay for Mean Firing Rate, Shafer Lab (AID 2284009);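 note: analyzed for loss of signal so actives lower firing rate relative to DMSO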
Method in brief: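 Rat cortical neuron cultures matured to DIV 13 or 15, equilibrated 20 min at 37 C, then recorded 40 min for baseline. Compound (0.03-40 uM) added and a further 40 min recorded; percent change in mean firing rate calculated per well.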

[9] = CCTE_Shafer_MEA_acute_burst_number: CCTE's Neural Acute Assay for Single-Electrode Bursts, Shafer Lab (AID 2284013)
Method in brief: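 Percent change in single-electrode burst number per well, from 40-min recordings taken before and after adding compound (0.03-40 uM) to primary rat cortical neurons on MEA plates at DIV 13 or 15, 37 C.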

[10] = CCTE_Shafer_MEA_acute_burst_duration_mean: CCTE's Neural Acute Assay for Mean Burst Duration, Shafer Lab (AID 2284014);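 note: hits are decreases in mean burst duration relative to DMSO controls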
Method in brief: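 Rat cortical cultures, DIV 13/15; 40 min baseline, then 40 min with compound (0.03-40 uM), 37 C. Spikes: 300-5000 Hz band-pass, 8x rms threshold. Read-out: % change in mean single-electrode burst duration, DMSO-referenced, loss direction.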

Measured: outcome

O=[N+]([O-])[O-].[NH4+]
inactive: [1] | [2]

O=[N+]([O-])OCC(CO[N+](=O)[O-])(CO[N+](=O)[O-])CO[N+](=O)[O-]
inactive: [3] | [4] | [1] | [2] | [5]

Cc1cccc([N+](=O)[O-])c1[N+](=O)[O-]
inactive: [6] | [3] | [4] | [1] | [2] | [5]

Cc1c([N+](=O)[O-])cccc1[N+](=O)[O-]
inactive: [1] | [2]

C/C1=C2N=C(/C=C3N=C(/C(C)=C4\[N-][C@@](C)([C@@H]5N=C1[C@](C)(CCC(=O)NC[C@@H](C)OP(=O)([O-])O[C@H]1[C@@H](O)[C@@H](n6cnc7cc(C)c(C)cc76)O[C@@H]1CO)[C@H]5CC(N)=O)[C@@](C)(CC(N)=O)[C@@H]4CCC(N)=O)[C@@](C)(CC(N)=O)[C@@H]\3CCC(N)=O)C(C)(C)[C@@H]/2CCC(N)=O.[C-]#N.[Co+3]
inactive: [1] | [2] | [5]

O=[N+]([O-])c1cccc([N+](=O)[O-])c1
not listed: [3] | [4] | [6]
inactive: all other assays above

Cc1ccc([N+](=O)[O-])c([N+](=O)[O-])c1
inactive: [1] | [2] | [5]

[NH4+].[O-][Cl+3]([O-])([O-])[O-]
inactive: [1] | [2]

CC(C)OP(C)(=O)OC(C)C
inactive: [7] | [8] | [1] | [2] | [9] | [10]

N#CBr
inactive: [1] | [2] | [5]

COP(C)(=O)OC
inactive: [1] | [2] | [5]

Cc1ccc([N+](=O)[O-])cc1[N+](=O)[O-]
inactive: [1] | [2]
